# According to US20060167110A1 (published 2006):
# By UniProt entry, the sequences of proteins in these tests, tags left out.
# UniProt P19643, whole entry: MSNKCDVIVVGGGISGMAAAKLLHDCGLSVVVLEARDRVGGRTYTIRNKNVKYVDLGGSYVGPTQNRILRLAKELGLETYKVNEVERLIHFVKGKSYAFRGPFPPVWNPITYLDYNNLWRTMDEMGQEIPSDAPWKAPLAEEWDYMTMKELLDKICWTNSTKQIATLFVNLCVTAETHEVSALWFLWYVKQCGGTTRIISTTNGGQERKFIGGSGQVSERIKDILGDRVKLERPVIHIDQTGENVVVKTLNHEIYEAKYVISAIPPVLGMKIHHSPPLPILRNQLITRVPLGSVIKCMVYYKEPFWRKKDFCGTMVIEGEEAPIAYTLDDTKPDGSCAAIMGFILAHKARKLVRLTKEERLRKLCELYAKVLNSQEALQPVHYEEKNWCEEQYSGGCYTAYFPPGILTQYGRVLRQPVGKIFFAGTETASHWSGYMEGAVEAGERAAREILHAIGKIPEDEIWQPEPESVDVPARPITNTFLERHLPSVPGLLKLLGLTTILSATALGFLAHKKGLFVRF
# UniProt P23977, whole entry: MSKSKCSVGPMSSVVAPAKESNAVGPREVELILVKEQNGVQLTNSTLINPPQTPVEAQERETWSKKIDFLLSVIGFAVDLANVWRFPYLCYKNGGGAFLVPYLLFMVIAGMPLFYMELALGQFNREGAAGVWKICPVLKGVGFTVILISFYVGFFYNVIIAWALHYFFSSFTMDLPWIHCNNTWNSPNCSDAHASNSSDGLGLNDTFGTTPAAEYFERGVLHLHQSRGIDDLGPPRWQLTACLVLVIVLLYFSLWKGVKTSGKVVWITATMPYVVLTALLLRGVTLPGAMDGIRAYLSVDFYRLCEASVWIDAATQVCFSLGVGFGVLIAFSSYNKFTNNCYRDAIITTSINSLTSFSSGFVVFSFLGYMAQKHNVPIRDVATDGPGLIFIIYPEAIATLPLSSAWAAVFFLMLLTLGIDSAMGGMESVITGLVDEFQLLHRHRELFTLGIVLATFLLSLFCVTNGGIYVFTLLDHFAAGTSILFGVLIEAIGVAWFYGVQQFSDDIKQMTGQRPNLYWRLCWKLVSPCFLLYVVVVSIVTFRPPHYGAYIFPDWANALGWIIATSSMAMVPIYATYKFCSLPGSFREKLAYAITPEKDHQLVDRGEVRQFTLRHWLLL
# UniProt P58028, whole entry: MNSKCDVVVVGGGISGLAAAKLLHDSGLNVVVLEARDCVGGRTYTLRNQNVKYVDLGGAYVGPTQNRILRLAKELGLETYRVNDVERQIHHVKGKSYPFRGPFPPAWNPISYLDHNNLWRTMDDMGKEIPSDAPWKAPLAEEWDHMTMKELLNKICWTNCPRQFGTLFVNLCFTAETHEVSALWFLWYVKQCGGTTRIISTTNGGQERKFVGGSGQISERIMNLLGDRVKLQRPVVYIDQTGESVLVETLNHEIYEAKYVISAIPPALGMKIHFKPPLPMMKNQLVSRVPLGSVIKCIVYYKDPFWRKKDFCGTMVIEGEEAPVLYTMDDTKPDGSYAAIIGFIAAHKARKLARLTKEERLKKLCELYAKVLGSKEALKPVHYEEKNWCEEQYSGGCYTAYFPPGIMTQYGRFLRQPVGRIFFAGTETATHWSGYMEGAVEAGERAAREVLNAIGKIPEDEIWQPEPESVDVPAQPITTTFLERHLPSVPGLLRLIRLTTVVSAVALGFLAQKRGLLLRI
# “And” between values parts separate entries of the source, which are not always exact repeats. Equal entries are not always repeated.
# What was measured:
# MAO-B [1] = target: T1, MAO-B (Rattus norvegicus, UniProt P19643); conditions: in rats; Borbe; cited from earlier work
# MAO-B [2] = target: T1, MAO-B; test: biochemical; conditions: read-out: Percent Inhibition MAO-B
# MAO-B [3] = target: T1, MAO-B; test: biochemical
# dopamine uptake system = dopamine uptake system (Rattus norvegicus, UniProt P23977); test: Inhibition of tritiated dopamine uptake in rat neostriatal nerve-terminal (synaptosome) preparation; conditions: IC50, concentration needed to inhibit dopamine uptake by 50%
# MAO-B [4] = target: T2, MAO-B (Cavia porcellus, UniProt P58028); test: In vivo brain MAO-B inhibition in guinea pig hippocampus after 5 daily s.c. doses; conditions: 5 days of administration; more recent studies
# MAO-B [5] = target: T2, MAO-B; test: MAO-B inhibition in guinea pig hippocampal homogenates in vitro
SMILES,kind of MAO-B inhibition (MAO-B [1]),inhibition at 0.003 µM (MAO-B [2]) [%],inhibition at 0.01 µM (MAO-B [2]) [%],inhibition at 0.03 µM (MAO-B [2]) [%],inhibition at 0.1 µM (MAO-B [2]) [%],inhibition at 0.3 µM (MAO-B [2]) [%],inhibition at 1 µM (MAO-B [2]) [%],inhibition at 3 µM (MAO-B [2]) [%],inhibition at 10 µM (MAO-B [2]) [%],inhibition at 30 µM (MAO-B [2]) [%],IC50 (MAO-B [3]) [µM],IC50 (dopamine uptake system),"reduction in potency compared to selegiline, brain MAO-B in vivo (MAO-B [4])","IC50 (MAO-B [5]; IC50 Values for the Inhibition of MAO-B, Guinea Pig Hippocampal Cortex) [µM]","reduction in potency compared to selegiline, MAO-B, Guinea Pig Hippocampal Cortex (MAO-B [5]; figure in parentheses)","inhibition at 0.005 µM (MAO-B [5]; read-out: MAO-B % Inhibition 0 ± SEM, Concentration 5 nM) [%]","inhibition at 0.01 µM (MAO-B [5]; read-out: MAO-B % Inhibition 0 ± SEM, Concentration 10 nM) [%]","inhibition at 0.03 µM (MAO-B [5]; read-out: MAO-B % Inhibition 0 ± SEM, Concentration 30 nM) [%]","inhibition at 0.1 µM (MAO-B [5]; read-out: MAO-B % Inhibition 0 ± SEM, Concentration 100 nM) [%]","inhibition at 0.3 µM (MAO-B [5]; read-out: MAO-B % Inhibition 0 ± SEM, Concentration 0.3 μM) [%]"
"C#CCNC(C)Cc1ccccc1 (single isomer, unassigned) [R(−)DMS, R(−)-desmethylselegiline]",irreversible inhibitor of MAO-B,3.4,7.5,4.6,6.7,26.1,54.7,86.3,95.2,97,0.73,~54 µM and 54 µM,–,–,–,–,–,–,–,–
"C#CCN(C)[C@H](C)Cc1ccccc1 [Selegiline, (R)-N-α-dimethyl-N-2-propynylbenzeethanamine, reference compound]",–,–,–,–,–,–,–,–,–,–,–,–,1,0.001,1 nM (1),81.2 ± 2.6,95.6 ± 1.3,98.5 ± 0.5,98.8 ± 0.5,28.3 ± 8.7
